Data: patent US20090227619A1, “Harmine derivatives, intermediates used in their preparations, preparation processes and use therefo” (priority 2003, published 2009)

Tested on: Kunming mice
Settings: single i.p.
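Note: acute toxicity in Kunming mice grouped by sex, one intraperitoneal dose at five graded levels in Tween-80 plus 0.5% CMC-Na, deaths monitored over two weeks.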

2,9-dibenzyl-3-ethoxycarbonyl-β-carbolinium bromate [Compound 86]
Death rate (50% male 50% female mice, 40.96 mg/kg): 0
Death rate (50% male 50% female mice, 51.2 mg/kg): 25
Death rate (50% male 50% female mice, 64 mg/kg): 45
Death rate (50% male 50% female mice, 80 mg/kg): 65
Death rate (50% male 50% female mice, 100 mg/kg): 95
Death rate (female mice, 40.96 mg/kg): 0
Death rate (female mice, 51.2 mg/kg): 30
Death rate (female mice, 64 mg/kg): 40
Death rate (female mice, 80 mg/kg): 70
Death rate (female mice, 100 mg/kg): 100
Death rate (male mice, 40.96 mg/kg): 0
Death rate (male mice, 51.2 mg/kg): 20
Death rate (male mice, 64 mg/kg): 50
Death rate (male mice, 80 mg/kg): 60
Death rate (male mice, 100 mg/kg): 90

Like-named read-outs stand apart in the source and are kept apart here.
